Assay [1] deals with WN. The experiment in a line: competitive binding assay, from ID50 against unmodified hLL2 F(ab')2.
Assay [2] concerns the target WN. Briefly: competitive binding assay, printed as ID50; target taken as WN from paragraph 68.

Consider hLL2 F(ab')2, non-conjugated (antibody), for which the Immunoreactivity, % of hLL2 with WN [1] is 100%. The IC50 (in general, the concentration needed to halve the response being measured) in the assay with WN [2] was 0.384 µg/mL.

The values above are taken from US6953675.
